# Data as given in publication PMC5989272, “Transfer Hydrogenation and Antiproliferative Activity of Tethered Half-Sandwich Organoruthenium Catalysts” (Organometallics, 2018).
# Assays:
# [1] = tested on: A2780 human ovarian cancer cells; assay: Cell viability on coincubation with sodium formate (SRB); conditions: complex at 1/3 × IC50, 24 h + 72 h recovery
# [2] = 2 mM complex, GSH 10 mol equiv, 24 h incubation at 310 K
# Description: A second set of experiments investigated the time dependence of reactions of 2 with GSH (20 mM) in the mole ratio of 1/20, monitored by ^1H NMR (600 MHz) spectroscopy under conditions similar to those above (pH* 7.2, 310 K), from 5 min to 24 h.
Substance,Percentage of Cell Viability ([1]; 0 mM formate) [%],Percentage of Cell Viability ([1]; 0.5 mM formate) [%],Percentage of Cell Viability ([1]; 1.0 mM formate) [%],Percentage of Cell Viability ([1]; 2.0 mM formate) [%],stability of SG adduct after 24 h [2]
[Ru(η^6-Ph(CH2)3-ethylenediamine-N-Ms)Cl] [Complex 1],96,91 ± 2,78 ± 3,74,decomposed after 24 h
[Ru(η^6-Ph(CH2)3-ethylenediamine-N-Tf)Cl] [Complex 3],79 ± 2,75 ± 2,72 ± 3,63 ± 2,appeared to be stable
[Ru(η^6-Ph(CH2)3-ethylenediamine-N-Nb)Cl] [Complex 4],95,88 ± 2,85 ± 2,81,appeared to be stable
